Each structure is given as a SMILES string. Bounds are passed on as bounds.

The chains behind the UniProt entries cited, without tags or fusion partners. Residues count along the entry.
UniProt P27958, 1027-1657: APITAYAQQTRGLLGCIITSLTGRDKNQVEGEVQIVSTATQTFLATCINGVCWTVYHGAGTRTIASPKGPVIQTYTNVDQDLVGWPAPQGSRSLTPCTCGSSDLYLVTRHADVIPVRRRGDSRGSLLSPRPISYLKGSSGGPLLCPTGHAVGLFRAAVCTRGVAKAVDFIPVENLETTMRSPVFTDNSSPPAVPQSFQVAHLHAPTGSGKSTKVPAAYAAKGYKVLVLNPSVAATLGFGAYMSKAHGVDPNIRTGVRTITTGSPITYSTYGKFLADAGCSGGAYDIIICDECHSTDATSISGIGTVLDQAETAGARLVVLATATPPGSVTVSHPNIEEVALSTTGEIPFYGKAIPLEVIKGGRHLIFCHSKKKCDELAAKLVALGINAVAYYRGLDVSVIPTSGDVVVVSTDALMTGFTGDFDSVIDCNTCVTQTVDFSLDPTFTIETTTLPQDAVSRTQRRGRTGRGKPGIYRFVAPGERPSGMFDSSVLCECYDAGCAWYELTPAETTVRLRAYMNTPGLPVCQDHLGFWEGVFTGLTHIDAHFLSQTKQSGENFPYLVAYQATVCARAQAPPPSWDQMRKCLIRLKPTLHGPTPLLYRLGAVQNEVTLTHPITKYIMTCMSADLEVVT
UniProt P27958, 1658-1711: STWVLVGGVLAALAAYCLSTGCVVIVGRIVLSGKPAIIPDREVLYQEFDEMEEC

One assay addresses Recombinant heterodimeric HCV NS3/NS4A protease (strain 1a) (Hepatitis C virus genotype 1a, UniProt P27958). Nature of the assay: Spectrophotometric assay for HCV protease inhibitory activity. The assay is classed as biochemical. As to conditions: Table 1, range.
What is called Ki is the dissociation constant of the complex between target and ligand, obtained from inhibition or displacement. For `C=CCNC(=O)C(=O)[C@@H](CCC)NC(=O)[C@@H]1[C@@H]2[C@H](CN1C(=O)[C@@H](NC(=O)N[C@H](CN(C)S(=O)(=O)N(C)C(=O)OCc1ccccc1)C(C)(C)C)C(C)(C)C)C2(C)C` [Compound 10024], the Ki is not above 75 nM.
On to `CN(C)S(=O)(=O)NC[C@@H](NC(=O)N[C@H](C(=O)N1C[C@H]2[C@@H]([C@H]1C(=O)NC(CC1CCC1)C(=O)C(N)=O)C2(C)C)C(C)(C)C)C(C)(C)C` (stereo partly drawn) [Compound 10018], for which the Ki was 75 to 250 nM.
Turning to `CC(C)(C)[C@H](NC(=O)N[C@H](CNS(=O)(=O)NCCCCl)C(C)(C)C)C(=O)N1C[C@H]2[C@@H]([C@H]1C(=O)NC(CC1CC1)C(=O)C(N)=O)C2(C)C` (stereo partly drawn) [Compound 10040], the Ki was not above 75 nM.
Take `CCNC(=O)C(=O)[C@@H](CCC(F)(F)F)NC(=O)[C@@H]1[C@@H]2[C@H](CN1C(=O)[C@@H](NC(=O)N[C@H](CN(C)S(=O)(=O)N(C)C)C(C)(C)C)C(C)(C)C)C2(C)C` [Compound 10012]: the Ki was not above 75 nM.
In the case of `CC(C)[C@@H](CN(C)S(=O)(=O)N(C)C)NC(=O)N[C@H](C(=O)N1C[C@H]2[C@@H]([C@H]1C(=O)NC(CC1CCC1)C(=O)C(N)=O)C2(C)C)C(C)(C)C` (stereo partly drawn) [Compound 10031], the Ki was not above 75 nM.

Staying with this assay, now noted: Table 2, range.
With `Cc1nc(C)c(S(=O)(=O)N(C)C[C@@H](NC(=O)N[C@H](C(=O)N2C[C@H]3[C@@H]([C@H]2C(=O)NC(CC2CC2)C(=O)C(N)=O)C3(C)C)C(C)(C)C)C2CCCCC2)s1` (stereo partly drawn) [Compound 11158], the Ki is not above 75 nM.
For the compound `C=CCNC(=O)C(=O)C(CC1CC1)NC(=O)[C@@H]1[C@@H]2[C@H](CN1C(=O)[C@@H](NC(=O)N[C@H](CN(Cc1ccccc1)S(C)(=O)=O)C(C)(C)C)C(C)(C)C)C2(C)C` (stereo partly drawn) [Compound 11152], the Ki was not above 75 nM.
Same read-out and setting: the figure for `CN(C[C@@H](NC(=O)N[C@H](C(=O)N1C[C@H]2[C@@H]([C@H]1C(=O)NC(CC1CC1)C(=O)C(N)=O)C2(C)C)C1Cc2ccccc2C1)C(C)(C)C)S(=O)(=O)c1cccs1` (stereo partly drawn) [Compound 11187] is not above 75 nM; for `C=CCNC(=O)C(=O)C(CCC)NC(=O)[C@@H]1[C@@H]2[C@H](CN1C(=O)[C@@H](NC(=O)N[C@H](CN(C)S(=O)(=O)c1cccs1)C(C)(C)C)C1CCCC1)C2(C)C` (stereo partly drawn) [Compound 11225] it is not above 75 nM; for `CCCCC(NC(=O)[C@@H]1[C@@H]2[C@H](CN1C(=O)[C@@H](NC(=O)N[C@H](CN(C)S(C)(=O)=O)C(C)(C)C)C1Cc3ccccc3C1)C2(C)C)C(=O)C(N)=O` (stereo partly drawn) [Compound 11180] it is not above 75 nM.
For the compound `C=CCNC(=O)C(=O)C(CC1CC1)NC(=O)[C@@H]1[C@@H]2[C@H](CN1C(=O)[C@@H](NC(=O)N[C@H](CN(C)S(=O)(=O)c1cccc(F)c1)C(C)(C)C)C(C)(C)C)C2(C)C` (stereo partly drawn) [Compound 11343], the Ki was not above 75 nM.
For `C=CCNC(=O)C(=O)C(CC=C)NC(=O)[C@@H]1[C@@H]2[C@H](CN1C(=O)[C@@H](NC(=O)N[C@H](CN(C)S(C)(=O)=O)C(C)(C)C)C1CCCCC1)C2(C)C` (stereo partly drawn) [Compound 11080], the Ki is not above 75 nM.
On to `CC(C)[C@@H](CN(C)S(=O)(=O)c1ccccc1)NC(=O)N[C@H](C(=O)N1C[C@H]2[C@@H]([C@H]1C(=O)NC(CC1CC1)C(=O)C(N)=O)C2(C)C)C(C)(C)C` (stereo partly drawn) [Compound 11118], for which the Ki was not above 75 nM.
Turning to `C=CCNC(=O)C(=O)C(CCCC)NC(=O)[C@@H]1[C@@H]2[C@H](CN1C(=O)[C@@H](NC(=O)N[C@H](CN(C)S(=O)(=O)c1c(C)cc(C)cc1C)C(C)(C)C)C(C)(C)C)C2(C)C` (stereo partly drawn) [Compound 11333], the Ki was in the range of 75 to 250 nM.
In the case of `CC(C)[C@@H](CN(CC1CC1)S(=O)(=O)c1ccccc1)NC(=O)N[C@H](C(=O)N1C[C@H]2[C@@H]([C@H]1C(=O)NC(CC1CCC1)C(=O)C(N)=O)C2(C)C)C(C)(C)C` (stereo partly drawn) [Compound 11011], the Ki is not above 75 nM.
On the same count and under the same terms, the value for `C=CCNC(=O)C(=O)C(CCCC)NC(=O)[C@@H]1[C@@H]2[C@H](CN1C(=O)[C@@H](NC(=O)N[C@H](CN(C)S(C)(=O)=O)C(C)(C)C)C(C)(C)C)C2(C)C` (stereo partly drawn) [Compound 11062] was not above 75 nM.
As for `CC(C)(C)[C@H](NC(=O)NC1(Cc2ccccn2)CCCN(S(C)(=O)=O)C1)C(=O)N1C[C@H]2[C@@H]([C@H]1C(=O)NC(CC1CC1)C(=O)C(N)=O)C2(Cl)Cl` (stereo partly drawn) [Compound 11016], the Ki was more than 250 nM.
Turning to `C=CCNC(=O)C(=O)C(CC1CC1)NC(=O)[C@@H]1[C@@H]2[C@H](CN1C(=O)[C@@H](NC(=O)N[C@H](CN(C)S(=O)(=O)c1ccc(F)cc1)C(C)(C)C)C(C)(C)C)C2(C)C` (stereo partly drawn) [Compound 11334], the Ki is not above 75 nM.
The same measure, in the same setting: the value for `CC[C@H](C)[C@@H](CN(C)S(=O)(=O)c1cccs1)NC(=O)N[C@H](C(=O)N1C[C@H]2[C@@H]([C@H]1C(=O)NC(CC1CC1)C(=O)C(=O)NC)C2(C)C)C(C)(C)C` (stereo partly drawn) [Compound 11095] was 75 to 250 nM; that for `CCS(=O)(=O)N(C)C[C@@H](NC(=O)N[C@H](C(=O)N1C[C@H]2[C@@H]([C@H]1C(=O)NC(CC1CCC1)C(=O)C(N)=O)C2(C)C)C(C)(C)C)C1CCCCC1` (stereo partly drawn) [Compound 11160] was not above 75 nM.
Regarding `C=CCNC(=O)C(=O)C(CCCC)NC(=O)[C@@H]1[C@@H]2[C@H](CN1C(=O)[C@@H](NC(=O)N[C@H](CN(C)S(=O)(=O)c1cccs1)CC(C)(C)C)C(C)(C)C)C2(C)C` (stereo partly drawn) [Compound 11086], the Ki lay within 75 to 250 nM.
In the case of `CN(C[C@@H](NC(=O)N[C@H](C(=O)N1C[C@H]2[C@@H]([C@H]1C(=O)NC(CC1CC1)C(=O)C(N)=O)C2(C)C)C1Cc2ccccc2C1)C(C)(C)C)S(C)(=O)=O` (stereo partly drawn) [Compound 11147], the Ki was not above 75 nM.
`CCCC(NC(=O)[C@@H]1[C@@H]2[C@H](CN1C(=O)[C@@H](NC(=O)N[C@H](CN(C)S(=O)(=O)c1ccccc1)CC(C)(C)C)C(C)(C)C)C2(C)C)C(=O)C(N)=O` (stereo partly drawn) [Compound 11250]: the Ki was not above 75 nM.
Regarding `CCCCC(NC(=O)[C@@H]1[C@@H]2[C@H](CN1C(=O)[C@@H](NC(=O)N[C@H](CN(C)S(C)(=O)=O)C(C)(C)C)C1(C)CCCCC1)C2(C)C)C(=O)C(N)=O` (stereo partly drawn) [Compound 11179], the Ki was not above 75 nM.
Same read-out and setting: the figure for `CCCC(NC(=O)[C@@H]1[C@@H]2[C@H](CN1C(=O)[C@@H](NC(=O)N[C@H](CN(C)S(=O)(=O)c1cccs1)[C@@H](C)CC)C(C)(C)C)C2(C)C)C(=O)C(=O)NCC(F)(F)F` (stereo partly drawn) [Compound 11093] is more than 250 nM; for `C=CCNC(=O)C(=O)C(CCC)NC(=O)[C@@H]1[C@@H]2[C@H](CN1C(=O)[C@@H](NC(=O)N[C@H](CN(C)S(=O)(=O)c1cccs1)C(C)(C)C)C1CCCCC1)C2(C)C` (stereo partly drawn) [Compound 11076] it is not above 75 nM; for `C=CCNC(=O)C(=O)C(CC1CC1)NC(=O)[C@@H]1[C@@H]2[C@H](CN1C(=O)[C@@H](NC(=O)N[C@H](CN(C)S(=O)(=O)CC)C(C)(C)C)C(C)(C)C)C2(C)C` (stereo partly drawn) [Compound 11114] it is not above 75 nM.
Take `C=CCNC(=O)C(=O)C(CCCC)NC(=O)[C@@H]1[C@@H]2[C@H](CN1C(=O)[C@@H](NC(=O)N[C@H](CN(CC)S(C)(=O)=O)C(C)(C)C)C(C)(C)C)C2(C)C` (stereo partly drawn) [Compound 11170]: the Ki was not above 75 nM.

Still in this assay, the particulars now being: Table 3, range.
On to `CC[C@H](C)[C@@H](CNS(C)(=O)=O)NC(=O)N[C@H](C(=O)N1C[C@H]2[C@@H]([C@H]1C(=O)NC(CC1CCC1)C(=O)C(N)=O)C2(C)C)C(C)(C)C` (stereo partly drawn) [Compound 12023], for which the Ki was not above 75 nM.
With `C=CCNC(=O)C(=O)C(CCCC)NC(=O)[C@@H]1[C@@H]2[C@H](CN1C(=O)[C@@H](NC(=O)N[C@H](CNS(=O)(=O)c1ccccc1)C(C)C)C(C)(C)C)C2(C)C` (stereo partly drawn) [Compound 12015], the Ki was more than 250 nM.
As to `C=CCNC(=O)C(=O)C(CC1CC1)NC(=O)[C@@H]1[C@@H]2[C@H](CN1C(=O)[C@@H](NC(=O)N[C@H](CNS(=O)(=O)c1cccs1)C(C)C)C(C)(C)C)C2(C)C` (stereo partly drawn) [Compound 12016], the Ki lay in the range of 75 to 250 nM.

The assay is the same for the next values; noted with them: Table 4, range.
On to `C=CCNC(=O)C(=O)C(CCC)NC(=O)[C@@H]1[C@@H]2[C@H](CN1C(=O)[C@@H](NC(=O)N[C@H](CN(C)C(=O)C(F)(F)F)C(C)(C)C)C1CCCCC1)C2(C)C` (stereo partly drawn) [Compound 13032], for which the Ki is not above 75 nM.
Consider `CN(C[C@@H](NC(=O)N[C@H](C(=O)N1C[C@H]2[C@@H]([C@H]1C(=O)NC(CC1CCC1)C(=O)C(N)=O)C2(C)C)C(C)(C)C)C(C)(C)C)C(=O)C(F)(F)F` (stereo partly drawn) [Compound 13027], for which the Ki was not above 75 nM.

Still in this assay, the particulars now being: Table 5, range.
`CN(C[C@@H](NC(=O)N[C@H](C(=O)N1C[C@H]2[C@@H]([C@H]1C(=O)NC(CC1CCC1)C(=O)C(N)=O)C2(C)C)C(C)(C)C)C1CCCCC1)C(=O)OC(C)(C)C` (stereo partly drawn) [Compound 14050]: the Ki is more than 250 nM.
The same measure, in the same setting: the figure for `CN(C[C@H](CC(C)(C)C)NC(=O)N[C@H](C(=O)N1C[C@H]2[C@@H]([C@H]1C(=O)NC(CC1CCC1)C(=O)C(N)=O)C2(C)C)C(C)(C)C)C(=O)OC(C)(C)C` (stereo partly drawn) [Compound 14047] is more than 250 nM; for `CC(C)OC(=O)NC[C@@H](NC(=O)N[C@H](C(=O)N1C[C@H]2[C@@H]([C@H]1C(=O)NC(CC1CC1)C(=O)C(N)=O)C2(C)C)C(C)(C)C)C(C)C` (stereo partly drawn) [Compound 14021] it is not above 75 nM.
Consider `C=CCNC(=O)C(=O)C(CCCC)NC(=O)[C@@H]1[C@@H]2[C@H](CN1C(=O)[C@@H](NC(=O)N[C@H](CN(C)C(=O)OC(C)(C)C)C(C)(C)C)C(C)(C)C)C2(C)C` (stereo partly drawn) [Compound 14044], for which the Ki was more than 250 nM.

Still in this assay, the particulars now being: Table 5A, range.
`CCN(C[C@@H](NC(=O)N[C@H](C(=O)N1C[C@H]2[C@@H]([C@H]1C(=O)NC(CC1CC1)C(=O)C(=O)NC1CC1)C2(C)C)C1Cc2ccccc2C1)C(C)(C)C)S(=O)(=O)CC` (stereo partly drawn) [Compound 11413]: the Ki is not above 75 nM.
For `C=CCNC(=O)C(=O)C(CC1CCC1)NC(=O)[C@@H]1[C@@H]2[C@H](CN1C(=O)[C@@H](NC(=O)N[C@H](CN(C)S(=O)(=O)c1cccnc1)C(C)(C)C)C1(C)CCCCC1)C2(C)C` (stereo partly drawn) [Compound 11408], the Ki was not above 75 nM.
Still for that read-out and setting: the value for `C#CCCC(NC(=O)[C@@H]1[C@@H]2[C@H](CN1C(=O)[C@@H](NC(=O)N[C@H](CN(C)S(=O)(=O)c1ccccn1)C(C)(C)C)C1Cc3ccccc3C1)C2(C)C)C(=O)C(=O)NCC=C` (stereo partly drawn) [Compound 11395] was not above 75 nM.

Staying with this assay, now noted: Table 6.
For `C=CCNC(=O)C(=O)C(CCC(F)(F)F)NC(=O)[C@@H]1[C@@H]2[C@H](CN1C(=O)[C@@H](NC(=O)N[C@H](CN(C)S(C)(=O)=O)C(C)(C)C)C(C)(C)C)C2(C)C` (stereo partly drawn) [drawing 55], the Ki was 9 nM.
Still for that read-out and setting: the value for `C#CCCC(NC(=O)[C@@H]1[C@@H]2[C@H](CN1C(=O)[C@@H](NC(=O)N[C@H](CN(C)S(=O)(=O)c1ccccn1)C(C)(C)C)C1Cc3ccccc3C1)C2(C)C)C(=O)C(=O)NCC=C` (stereo partly drawn) [Compound 11395] was 8 nM.

(Values after patent US7759499B2, “Compounds as inhibitors of hepatitis C virus NS3 serine protease” (Schering Corporation, priority 2004, dated 2010).)
